Laboratory results from patent US11091472B2, “PI-kinase inhibitors with anti-infective activity” (The Board of Trustees of the Leland Stanford Junior …, priority 2016, dated 2021).

Columns and labels:
HRV = test: Rhinovirus antiviral assay; assay type: cell-based; conditions: Human rhinovirus sp., read-out: HRV EC50
HCV2a = test: microbe, parasite or virus in culture; assay type: cell-based, HCV; conditions: Hepatitis C virus, Huh7.5, read-out: HCV2a EC50
Text: Tables 4-6 show the results of testing selected compounds for anti-viral (EC50) activity in various assays, such as a HCV genotype 2a in Huh7.5 cells by luciferase reporter assay, for cell toxicity (CC50) and metabolic halflife (t½), according to the methods described above.

Row | Compound | EC50 (HRV) [nM] | EC50 (HCV2a) [nM]
1 | COc1ccc(-c2sc(NCC3CCCCC3)nc2C)cc1S(=O)(=O)Nc1ccccc1F [Compound S-29] | < 1 | –
2 | COc1ccc(-c2sc(NC(=O)[C@@H](C)C3CCCCC3)nc2C)cc1S(=O)(=O)Nc1ccc(O)cc1 [Compound S-138] | < 1 | 100 to 1000
3 | COc1ccc(-c2sc(NC(=O)CC3CCOCC3)nc2C)cc1S(=O)(=O)Nc1ccccc1C [Compound S-228] | < 1 | 100 to 1000
